{
  "source": "patent US20250074970A1",
  "about": "“METHOD OF PURIFYING IMMUNOGLOBULIN G AND USES THEREOF” (CSL Behring AG, priority 2021, published 2025)",
  "assay": "2D Difference Gel Electrophoresis (2D DIGE), isoelectric point",
  "format": "physicochemical",
  "conditions": "FcXP POROS eluate from clarified CPP, separation between pH 3 and 10",
  "description": "To determine the isoelectric point (pI) of impurities in the eluate compared to IgG, 2D Difference Gel Electrophoresis (2D DIGE) was performed. Samples of purified IgG from clarified CPP (FcXP POROS® eluate) were loaded with Sci5 and Sci3 dye respectively and loaded onto a 2D-SDS-PAGE. Separation of the samples by isoelectric point was performed between pH 3 and 10, followed by separation by size in the presence of SDS under reducing conditions (FIG. 2). IgG was identified to have isoelectric points between pH 7 and 9 in FcXP POROS® eluate samples (FIG. 2). IgM and albumin were identified in the eluate to have a pH of approximately 6.5 (circle in FIG. 2) which is lower than the isoelectric points of IgG.",
  "data": [
    {"substance": "albumin: impurity identified in the eluate", "values": [
      {"measurement": "isoelectric point", "result": "approximately 6.5 pH"}
    ]}
  ]
}
